Test results taken from paper PMC2999670 (The Journal of steroid biochemistry and molecular biology, 2010).

Protein sequences, listed by entry. Tags and fused reporters are not part of them.
UniProt P26439, whole entry Q105M: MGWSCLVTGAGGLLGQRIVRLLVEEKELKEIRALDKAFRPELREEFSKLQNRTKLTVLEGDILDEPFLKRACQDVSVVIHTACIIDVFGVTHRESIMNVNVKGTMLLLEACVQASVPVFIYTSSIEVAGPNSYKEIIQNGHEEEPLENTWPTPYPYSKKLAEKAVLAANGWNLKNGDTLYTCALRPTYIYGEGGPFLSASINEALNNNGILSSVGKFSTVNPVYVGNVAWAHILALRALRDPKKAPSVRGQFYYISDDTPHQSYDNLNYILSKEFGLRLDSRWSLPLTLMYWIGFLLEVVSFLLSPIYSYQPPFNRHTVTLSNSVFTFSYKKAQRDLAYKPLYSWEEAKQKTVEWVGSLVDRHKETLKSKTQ

Key:
Type in all cases: biochemical
[1] = molecular target: T1, Q105M-2 mutant of 3β-HSD2 (Homo sapiens, UniProt P26439, Q105M); experiment: Michaelis-Menten kinetics of 3β-HSD substrate; details: Table 4; substrate DHEA 3-100 μM, NAD+ 200 μM, 27° C, pH 7.4
[2] = molecular target: T2, Q105M-1 mutant of 3β-HSD1 (Homo sapiens, UniProt P14060, Q106M); experiment: Michaelis-Menten kinetics of 3β-HSD substrate; details: Table 4; substrate DHEA 3-100 μM, NAD+ 200 μM, 27° C, pH 7.4
T2 sequence (P14060 1-373 Q106M): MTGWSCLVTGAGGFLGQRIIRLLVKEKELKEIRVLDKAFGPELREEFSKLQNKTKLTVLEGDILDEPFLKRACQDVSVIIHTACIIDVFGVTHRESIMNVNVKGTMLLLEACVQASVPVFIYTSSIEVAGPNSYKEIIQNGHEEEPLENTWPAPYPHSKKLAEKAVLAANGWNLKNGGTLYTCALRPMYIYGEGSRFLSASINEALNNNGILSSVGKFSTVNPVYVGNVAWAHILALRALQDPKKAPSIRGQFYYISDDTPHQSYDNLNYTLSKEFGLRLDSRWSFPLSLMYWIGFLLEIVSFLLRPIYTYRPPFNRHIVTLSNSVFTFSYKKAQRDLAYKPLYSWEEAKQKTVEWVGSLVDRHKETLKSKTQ

[3] = molecular target: T2, Q105M-1 mutant of 3β-HSD1; experiment: Inhibition of 3β-HSD activity of purified enzyme, Dixon analysis
[4] = molecular target: T1, Q105M-2 mutant of 3β-HSD2; experiment: as above

Row | SMILES | 3β-HSD kcat [1] | 3β-HSD kcat [2] | Ki [3] | Ki [4]
1 | C[C@]12CC[C@H](O)CC1=CC[C@@H]1[C@@H]2CC[C@]2(C)C(=O)CC[C@@H]12 [DHEA, dehydroepiandrosterone] | 0.075 s⁻¹ | 0.113 s⁻¹ |  | 
2 | C[C@]1(O)CC[C@H]2[C@@H]3CC[C@@]45O[C@]4(C)C(O)=C(C#N)C[C@]5(C)[C@H]3CC[C@@]21C [epostane] |  |  | 1840 nM | 1640 nM
